Some results for these compounds are left out of this collection, so the calls shown say nothing about other tests.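 Where inhibition never reached the appropriate level, the endpoint shown equals the highest concentration tested. Otherwise, values were interpolated linearly from a five-concentration, 48-hour dose response in 96-well plates. At the GI50, growth is halved.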
Columns and labels:
Assay in all cases: DTP human tumour cell line panel, 48 h; in the data active = GI50 below about 0.43 µM; inactive = the rest
[1] = system: SNB-75 CNS
[2] = system: SK-OV-3 ovarian
[3] = system: PC-3 prostate
[4] = system: MDA-MB-435
[5] = system: UACC-62 melanoma
[6] = system: MCF7 breast
[7] = system: NCI-H522 lung
[8] = system: HCT-116 colon
[9] = system: DU-145 prostate
[10] = system: A498 renal
[11] = system: SNB-19 CNS
[12] = system: IGROV1 ovarian
[13] = system: SF-268 CNS
[14] = system: SK-MEL-5 melanoma
[15] = system: CAKI-1 renal
[16] = system: HOP-62 NSCLC
[17] = system: HS 578T breast
[18] = system: OVCAR-3 ovarian
[19] = system: ACHN renal
[20] = system: T-47D breast
[21] = system: MDA-N
[22] = system: U251 CNS
[23] = system: RXF 393 renal
[24] = system: TK-10 renal
[25] = system: MDA-MB-231 breast
[26] = system: 786-0 renal
[27] = system: NCI-H23 lung
[28] = system: BT-549 breast
[29] = system: NCI-H322M lung
[30] = system: SF-539 CNS
[31] = system: HOP-92 NSCLC
[32] = system: A549 NSCLC
[33] = system: HT29 colon
[34] = system: SK-MEL-2 melanoma
[35] = system: NCI-H460 lung
[36] = system: SN12C renal
[37] = system: SK-MEL-28 melanoma
[38] = system: NCI/ADR-RES ovarian
[39] = system: SW-620 colon
[40] = system: OVCAR-5 ovarian
[41] = system: UACC-257 melanoma
[42] = system: KM12 colon
[43] = system: SF-295 CNS
[44] = system: K-562 leukemia
[45] = system: MALME-3M melanoma
[46] = system: COLO 205 colon
[47] = system: OVCAR-4 ovarian
[48] = system: EKVX NSCLC
[49] = system: RPMI-8226 leukemia
[50] = system: UO-31 renal
[51] = system: M14 melanoma
[52] = system: OVCAR-8 ovarian
[53] = system: HCT-15 colon
[54] = system: NCI-H226 lung

Measured: GI50

C=C(C)C#CC(O)(C(=O)OC1CCN(C)CC1)c1ccccc1 (centres undefined)
inactive: [1] > 100 µM | [2] > 100 µM | [3] > 100 µM | [4] > 100 µM | [5] > 100 µM | [6] > 100 µM | [7] > 100 µM | [8] > 100 µM | [9] > 100 µM | [10] > 100 µM | [11] > 100 µM | [12] > 100 µM | [13] > 100 µM | [14] > 100 µM | [15] > 100 µM | [16] > 100 µM | [17] > 100 µM | [18] > 100 µM | [19] > 100 µM | [20] > 100 µM | [21] > 100 µM | [22] > 100 µM | [23] > 100 µM | [24] > 100 µM | [25] > 100 µM | [26] > 100 µM | [27] > 100 µM | [28] > 100 µM | [29] > 100 µM | [30] > 100 µM | [31] > 100 µM | [32] > 100 µM | [33] > 100 µM | [34] > 100 µM | [35] > 100 µM | [36] > 100 µM | [37] > 100 µM | [38] > 100 µM | [39] > 100 µM | [40] > 100 µM | [41] > 100 µM | [42] > 100 µM | [43] > 100 µM | [44] > 100 µM | [45] > 100 µM | [46] > 100 µM | [47] > 100 µM | [48] > 100 µM | [49] > 100 µM | [50] 31.7 µM | [51] > 100 µM | [52] > 100 µM | [53] > 100 µM | [54] > 100 µM
